Protein sequences, listed by entry. Tags and fused reporters are not part of them. Lines headed by an entry give the natural chain unless they say otherwise; changes in a name come on top.
UniProt P0A9L5: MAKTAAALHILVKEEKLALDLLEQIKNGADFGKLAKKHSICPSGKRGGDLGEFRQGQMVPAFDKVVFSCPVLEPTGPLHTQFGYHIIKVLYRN

In patent US20060252813A1, “Apparatus for curing a composite laminate” (priority 2002, published 2006):

Biological target: EcParvulin (Escherichia coli, UniProt P0A9L5)
Test: protease-coupled PPIase assay, EcParvulin
Format: biochemical
Conditions: 20 nM EcParvulin; substrate Suc-Ala-Phe-Pro-Phe-pNA, α-chymotrypsin; 35 mM HEPES pH 7.8, 6° C; read-out: Target T-5 (EcParv), IC50 class

Compared with `CCNC(=S)NC(Cc1ccc2ccccc2c1)C(=O)NCCC#N` (centres unmarked) [Compound 1], `N#CCCNC(=O)[C@H](Cc1csc2ccccc12)NC(=S)Nc1ccc(SC(F)(F)F)cc1` [Compound 2] is lower in IC50: > 100 µM for the first, 50 to 100 µM for the second. The second is the more potent here.

First: N#CCCNS(=O)(=O)Cc1ccccc1 [Compound 3]
Second: CN(C)c1ccc(N=Nc2ccc(S(=O)(=O)NCCC#N)cc2)cc1 [Compound 7]
The IC50 of the first is higher: > 100 µM for the first, 10 to 50 µM for the second.

Work on `CC(=O)NC(Cc1cccc2ccccc12)C(=O)NC(Cc1ccccc1C#N)C(N)=O` (centres unmarked) [Compound 8] yielded an IC50 of 5 to 10 µM.
